Patent US20060110456A1, “Method for biocidal and/or biostatic treatment and compositions therefor” (NATIONAL UNIVERSITY OF SINGAPORE, priority 2004, published 2006)

How the values were obtained:
Assay type in all cases: cell-based, marine bacteria isolated from Singapore fouling communities
[1] = system: marine bacteria (26 strains); assay: Disk inhibition assay
marine bacteria = assay: Growth assay (absorbance, 96-well plates); conditions: 25 μg ml−1; strain named in the value; hydrochloride
[2] = system: marine bacteria (ten strains); assay: Bacteriostatic vs bacteriocidal activity from growth assay: absorbance and CFU counts; conditions: 50 μg ml^−1

Compound: CN[C@H]1CC[C@@H](c2ccc(Cl)c(Cl)c2)c2ccccc21.Cl [ZLT, sertraline hydrochloride]
- Activity against the three Vibrio strains tested [1]: exhibited activity against the three Vibrio strains tested
- Antibiotic activity against marine bacteria [1]: strongest activity
- Antibiotic activity against marine bacteria ([1]; crude rank, best (1) to worst (8)): 1
- Growth response (absorbance over time) (marine bacteria): Strain 16 showed delayed growth after 20 hours; also recorded: Recovery of growth by strain 16; also recorded: Little or no growth response by bacteria strain 28
- Growth assay: 24-hour change in absorbance for ten strains ([2]; strains 1, 4, 9, 14, 18, 20, 27, 28, 29, 30): only strain number 14 grew in the presence of ZLT
- Result (bacteriostatic / bacteriocidal / no effect) ([2]; strain 1 (Rhodovulum)): bacteriostatic
- Result (bacteriostatic / bacteriocidal / no effect) ([2]; strain 4 (Bacillus)): bacteriocidal
- Result (bacteriostatic / bacteriocidal / no effect) ([2]; strain 9 (Bacillus)): bacteriocidal
- Result (bacteriostatic / bacteriocidal / no effect) ([2]; strain 14 (Vibrio)): no effect
- Result (bacteriostatic / bacteriocidal / no effect) ([2]; strain 18 (Microbacterium)): bacteriostatic
- Result (bacteriostatic / bacteriocidal / no effect) ([2]; strain 20): bacteriocidal
- Result (bacteriostatic / bacteriocidal / no effect) ([2]; strain 27): bacteriocidal
- Result (bacteriostatic / bacteriocidal / no effect) ([2]; strain 28): bacteriostatic
- Result (bacteriostatic / bacteriocidal / no effect) ([2]; strain 29): bacteriocidal
- Result (bacteriostatic / bacteriocidal / no effect) ([2]; strain 30): bacteriostatic

Entries after “also recorded” stand apart in the source; their conditions may differ. Like-named read-outs stand apart in the source and are kept apart here.
